Results taken from patent US9464060B2, “Compounds” (TAKEDA PHARMACEUTICAL COMPANY LIMITED, priority 2013, dated 2016).

Sequences of proteins named here, by UniProt entry; tags and fusion partners are left off. A change or cut given only in a name is not applied to a line headed by its entry.
UniProt Q9H1C0: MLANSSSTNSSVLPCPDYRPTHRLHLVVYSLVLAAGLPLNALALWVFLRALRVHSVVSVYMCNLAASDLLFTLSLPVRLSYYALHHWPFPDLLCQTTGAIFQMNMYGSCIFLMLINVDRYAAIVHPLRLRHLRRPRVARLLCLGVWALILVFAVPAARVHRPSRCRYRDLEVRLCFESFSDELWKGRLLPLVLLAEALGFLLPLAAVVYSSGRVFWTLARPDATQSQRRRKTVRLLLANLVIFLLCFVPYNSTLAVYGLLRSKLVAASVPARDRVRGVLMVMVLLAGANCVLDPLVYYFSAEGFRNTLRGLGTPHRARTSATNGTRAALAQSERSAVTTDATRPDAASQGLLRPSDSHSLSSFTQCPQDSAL
UniProt Q92633: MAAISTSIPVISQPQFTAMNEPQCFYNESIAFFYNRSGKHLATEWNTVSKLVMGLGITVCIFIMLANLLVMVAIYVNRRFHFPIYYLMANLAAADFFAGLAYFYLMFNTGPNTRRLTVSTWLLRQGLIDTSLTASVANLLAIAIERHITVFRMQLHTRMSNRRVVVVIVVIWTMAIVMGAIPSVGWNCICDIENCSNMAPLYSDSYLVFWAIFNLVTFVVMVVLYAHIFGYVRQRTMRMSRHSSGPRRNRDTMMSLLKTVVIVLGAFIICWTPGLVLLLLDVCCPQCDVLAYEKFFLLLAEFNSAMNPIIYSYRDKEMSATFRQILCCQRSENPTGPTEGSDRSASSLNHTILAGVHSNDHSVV

Tests used:
[1] = target: LPA5 receptor (Homo sapiens (Human), UniProt Q9H1C0); test: In vitro LPA5 receptor assay (LPA-driven intracellular calcium release, FLIPR); assay type: cell-based; details: RH7777 cells expressing human LPA5 receptors; LPA at EC90
Method: In Vitro LPA5 Receptor Assay
(§1) Engagement of the LPA5 receptor by its ligand, oleoyl-L-α-lysophosphatidic acid (LPA), leads to the release of intracellular stores of calcium into the cytoplasm mediated through a Gq-driven increase in inositol triphosphate (IP3) levels. Gq is a heterotrimeric G protein subunit that activates phospholipase C.
The ability of test compounds to prevent LPA-driven intracellular release of stored calcium from RH7777 cells expressing human LPA5 receptors was assayed by stimulating the cells with LPA in the presence of various test compounds to measure the test compounds'antagonism, i.e. activity in vitro.
(§2) Approximately 10,000 cells in normal culture medium (Minimal Essential Media, 10% Foetal Calf Serum) were dispensed per assay well in a black clear bottom poly-D-lysine coated 384 well plate (Corning). Cells were allowed to settle for thirty minutes at room temperature before being incubated overnight at 37° C., 5% CO2. […]
(§3) To test for antagonist activity, test compounds at a final concentration range between 0.32 nM-10 μM (diluted in assay buffer) were added to the assay wells and allowed to incubate for fifteen minutes. […] Ligand-dependent changes in intracellular calcium levels were determined by measuring changes in fluorescence of the dye over […] following excitation over […].

[2] = target: human LPA1 receptors (Homo sapiens (Human), UniProt Q92633); test: In vitro LPA1 receptor assay (LPA-driven intracellular calcium release, FLIPR); assay type: cell-based; details: RH7777 cells expressing human LPA1 receptors; LPA at EC80
Method: In Vitro LPA1 Receptor Assay
as §1, with “LPA1” for “LPA5”
The ability of test compounds to prevent LPA-driven intracellular release of stored calcium from RH7777 cells expressing human LPA1 receptors was assayed by stimulating the cells with LPA in the presence of various test compounds to measure the test compounds' antagonism, i.e. activity in vitro.
as §2, with “(Dulbecco's Modified Eagle” for “(Minimal Essential”, “collagen” for “poly-D-lysine”, “(Beckton Dickinson).” for “(Corning).”
as §3, with “twenty five” for “fifteen”

- IC50 [1]: 45 nM
- IC50 [2]: 46 nM
SMILES: CCN(Cc1ccc(C(=O)O)cc1)C(=O)c1ccc(Oc2ccccc2OC)cc1 [Example 28, 4-((N-Ethyl-4-(2-methoxyphenoxy)benzamido)methyl)benzoic acid]
